Antibody variant affinities, Ab-95 light chain, assay 2

The measurements come from Engelhart et al. 2022 (doi:10.1038/s41597-022-01779-4) through the FLAb antibody collection.

Antigen: PDVDLGDISGINAS, a 14-residue peptide of the SARS-CoV-2 spike HR2 region.

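The starting antibody came from a phage panning campaign against this peptide. Variants in AAYL52 differ from the parent at up to three CDR positions; double and triple changes were sampled at random. AlphaSeq pools MATa yeast showing the antibodies with MATalpha yeast showing the peptide. Pairs that bind mate more often; barcode pairs of the diploids are counted by sequencing. Each replicate has its own calibration line, from reference interactions of the BCL2 family. Mating was done three times.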

Parent scFv Ab-95: VH joined to VL by three GGGGS repeats. Changes lie in the light chain CDRs alone.
VH: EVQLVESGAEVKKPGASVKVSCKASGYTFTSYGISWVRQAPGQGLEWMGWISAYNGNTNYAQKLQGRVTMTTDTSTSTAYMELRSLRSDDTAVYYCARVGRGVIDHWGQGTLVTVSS
VL: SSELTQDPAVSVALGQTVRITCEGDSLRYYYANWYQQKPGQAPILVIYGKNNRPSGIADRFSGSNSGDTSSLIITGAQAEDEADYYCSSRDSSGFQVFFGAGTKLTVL

Substitutions are numbered in sequence along the VL above, starting at 1 (not Kabat). Scale: log10 of Kd in nM, estimated from mating counts; low values are strong binders. Averages over replicates are reported, and they cover detected replicates only. Where no diploid with the target was found in any replicate, the entry reads "nd": below detection, most likely a poor binder, though not proof of it. In this assay the parent's reference entry averaged 2.31; its copy inside this library read 2.25. Three control strains display no target. For library AAYL52, 28% of the pairings with them gave a signal, with a median of 3.91 and one signal in twenty below 2.90, so weak values seen in few replicates may be background.

changes	log10 Kd (nM), mean	detected
E23Q/K50P/S89F	nd	0 of 3
R28L/Y29H/G49W	nd	0 of 3
E23C/A32C/R53L	nd	0 of 3
S26C/A32M/F95T	2.87	3 of 3
G49T/K50C/G94E	4.51	2 of 3
Y29P/D91L	2.70	3 of 3
Y29F/S92I/G94N	3.67	1 of 3
G49A/D91V/G94H	4.30	3 of 3
N51L/R90C/G94P	3.70	2 of 3
A32F/R53H	nd	0 of 3
D25I/K50I/S89F	3.72	3 of 3
S55F/S88H/F95T	2.68	3 of 3
G24N/D25E/R90I	3.76	1 of 3
G24F/Y30N/S55A	1.32	3 of 3
R53T/S55Y/F98N	3.25	1 of 3
L27W/Y29N/S55W	3.88	2 of 3
E23V/D25G	2.64	3 of 3
R28G/P54F/S55L	3.15	3 of 3
R90M/S92R	4.81	2 of 3
R53C/S89W/S93W	3.69	1 of 3
Y30N/A32V/F98L	1.21	3 of 3
G49K/S55W/D91E	3.61	2 of 3
N33S/G94P/V97Y	2.99	1 of 3
R28E/S93C/Q96D	1.95	3 of 3
A32E/S89K/S93R	nd	0 of 3
R28W/G94P	4.52	1 of 3
Y31F/S93A/F95T	2.66	3 of 3
L27C/G49K	nd	0 of 3
D25M/R28S/Q96V	3.65	2 of 3
R28H/N52C/D91K	3.55	1 of 3
R28Y/S89W/V97L	3.22	3 of 3
G24D/D25A/Q96F	3.38	2 of 3
N33D/N52E	4.27	3 of 3
E23H/G24T/G94A	3.08	2 of 3
G24E/V97C	4.54	1 of 3
Y31K/S88F/S92L	3.87	1 of 3
R90M/F98G	3.28	3 of 3
S26R/S55I	5.13	1 of 3
Y29V/Y30W/G94M	3.69	2 of 3
D25I/G94P/V97A	2.80	3 of 3
Y31D/R53A/F98H	2.63	3 of 3
Y30G/Y31C/K50H	0.93	3 of 3
Y30N/D91Q/S92H	1.34	3 of 3
E23H/D91W/V97S	nd	0 of 3
L27E/K50S	2.93	2 of 3
P54L/Q96R	2.67	3 of 3
N33Q/K50D/S93C	4.03	2 of 3
Y31T/R90D	2.12	3 of 3
S88A/D91W	3.07	3 of 3
R28H/V97I	2.95	2 of 3
S26V/S89H/R90A	3.12	2 of 3
G24F/S55D	1.92	3 of 3
N52H/D91S/F98D	2.95	3 of 3
R28K/Y30R/S92Q	0.96	3 of 3
R28D/N51C/S89L	4.03	1 of 3
Y29A/A32K/D91P	4.44	3 of 3
Y31E/S55R/G94N	3.25	1 of 3
Y29Q/N33A/S93A	4.37	1 of 3
A32M/N52P/F98G	3.20	1 of 3
G24A/S55P/S92I	3.16	2 of 3
Y31E/G49L/F95W	4.63	1 of 3
D91H/Q96I/V97L	2.30	3 of 3
S26R/A32D/Q96Y	5.51	1 of 3
D25G/R53A/V97A	nd	0 of 3
A32S/S88Q/G94P	3.99	3 of 3
G49H/N51W/D91P	nd	0 of 3
E23G/S55G/S92I	2.10	3 of 3
D25H/N51R/S55G	3.85	1 of 3
R28V/Y29P/V97M	3.80	1 of 3
K50A/N52L/R90S	3.22	2 of 3
Y30T/S55N/R90A	2.27	1 of 3

The first 10 entries again:

changes	log10 Kd (nM), mean	detected
E23Q/K50P/S89F	nd	0 of 3
R28L/Y29H/G49W	nd	0 of 3
E23C/A32C/R53L	nd	0 of 3
S26C/A32M/F95T	2.87	3 of 3
G49T/K50C/G94E	4.51	2 of 3
Y29P/D91L	2.70	3 of 3
Y29F/S92I/G94N	3.67	1 of 3
G49A/D91V/G94H	4.30	3 of 3
N51L/R90C/G94P	3.70	2 of 3
A32F/R53H	nd	0 of 3